The values below are quoted from earlier work in patent publication US6403630B1, “Treating cancers associated with overexpression of HER-2/neu” (Cornell Research Foundation, Inc., priority 1999, dated 2002).

This data set relates to metastatic breast cancer. To be noted: cited from earlier work.

Regarding “HERCEPTIN®: an antibody to HER-2/neu, available from Genentech”, the remission time entry is recorded as “lengthen”.
